Here are results for three molecules from PubChem BioAssay AID710 (SRMLSC, 2007).

The list shows a part of the results, in another mix than the full data. Some tests of the compounds listed are not included; inactive here does not mean inactive elsewhere. Active and inactive are the calls of the source.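 How the source made its calls: active means growth inhibition above about 50% at one test dose (limit read from the data); inactive means the rest.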

The test in a line: antibacterial activity against E. coli BW25113 – strain BW25113, expanded library, OD600, primary screen (AID 710).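 Further: growth measured after 20 h incubation at 37 °C.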 The conditions noted are these: OD600 absorbance, at 100 µM, active compounds read high.
Turning to `CC(C)N1C(=O)CC2(CCN(CCOC(=O)C(O)(c3ccccc3)c3ccccc3)CC2)C1=O`, the growth inhibition was inactive: 7%.

Regarding `CN(C)c1cccc(C(=O)NCC2(N(C)C)CCCCC2)c1`, the growth inhibition is inactive: 4%.

Regarding `O=C(OC1CN2CCC1CC2)C(CO)(c1ccccc1)c1ccccc1` (stereo not drawn), the growth inhibition was inactive: 5%.
